We go through 3 substances from patent US20100311642A1, “USE OF V2 RECEPTOR ANTAGONISTS IN COMBINATION WITH VASO PRESSINERGIC AGNOSTS” (Ferring B.V., priority 2007, published 2010).

Protein sequences, listed by entry. Tags and fused reporters are not part of them.
UniProt P37288, whole entry: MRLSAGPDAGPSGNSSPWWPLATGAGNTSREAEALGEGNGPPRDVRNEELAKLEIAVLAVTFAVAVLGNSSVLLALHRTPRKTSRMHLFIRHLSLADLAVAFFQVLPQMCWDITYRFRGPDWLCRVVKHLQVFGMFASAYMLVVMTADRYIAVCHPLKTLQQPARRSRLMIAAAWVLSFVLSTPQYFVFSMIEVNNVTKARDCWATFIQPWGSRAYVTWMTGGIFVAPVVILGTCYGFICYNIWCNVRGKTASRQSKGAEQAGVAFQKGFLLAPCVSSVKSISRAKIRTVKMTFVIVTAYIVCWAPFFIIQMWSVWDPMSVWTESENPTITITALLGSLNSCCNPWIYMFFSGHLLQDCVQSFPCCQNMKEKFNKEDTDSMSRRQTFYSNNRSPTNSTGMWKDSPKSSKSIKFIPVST
UniProt Q00788, whole entry: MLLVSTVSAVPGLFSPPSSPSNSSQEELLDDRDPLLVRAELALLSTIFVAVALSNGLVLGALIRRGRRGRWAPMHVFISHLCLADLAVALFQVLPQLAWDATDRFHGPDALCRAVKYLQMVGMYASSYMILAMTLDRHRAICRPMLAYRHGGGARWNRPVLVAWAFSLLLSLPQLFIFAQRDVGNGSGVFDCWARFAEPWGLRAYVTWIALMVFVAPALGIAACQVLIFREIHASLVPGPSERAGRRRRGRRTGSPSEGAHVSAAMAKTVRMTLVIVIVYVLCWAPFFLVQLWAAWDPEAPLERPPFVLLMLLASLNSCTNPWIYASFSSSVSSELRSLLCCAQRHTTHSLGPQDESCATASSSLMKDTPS
UniProt P30560, whole entry: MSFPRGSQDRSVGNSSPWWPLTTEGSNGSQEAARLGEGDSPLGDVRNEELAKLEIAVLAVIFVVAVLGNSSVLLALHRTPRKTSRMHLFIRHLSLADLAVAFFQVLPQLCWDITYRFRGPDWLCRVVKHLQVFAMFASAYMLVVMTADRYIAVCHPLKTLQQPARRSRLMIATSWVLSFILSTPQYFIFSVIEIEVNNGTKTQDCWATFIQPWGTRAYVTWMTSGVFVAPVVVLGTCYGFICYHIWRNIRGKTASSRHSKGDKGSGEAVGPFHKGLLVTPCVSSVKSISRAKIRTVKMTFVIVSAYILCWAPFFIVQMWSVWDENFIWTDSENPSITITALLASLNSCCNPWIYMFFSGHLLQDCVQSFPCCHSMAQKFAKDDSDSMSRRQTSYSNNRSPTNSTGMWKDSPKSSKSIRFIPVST

A value given as a limit tells only on which side of the number the result lay.

Type in all cases: cell-based
Assay [1] addresses T1, human V1a receptor (hV1aR) (Homo sapiens, UniProt P37288).
T1 construct: expressed in transfected cells; host or cells: HEK-293
Description: Antagonist transcriptional reporter gene assay, human V1a receptor. The settings on record: hV1a, HEK-293 reporter gene, vs AVP; for Ki: Ki calculated from IC50, read-out: Geomean Ki. The procedure: Agonist activity of compounds on the human V1a receptor (hV1aR) and the rat V1a receptor (rV 1 aR) was determined in a transcriptional reporter gene assay in which HEK-293 cells were transiently co-transfected with either the human or rat V1a receptor, and a reporter DNA containing intracellular calcium responsive promoter elements regulating expression of firefly luciferase.
(§1) Antagonist activity of compounds on the human V1a receptor (hV1aR) and the rat V1a receptor (rV 1 aR) was determined in a transcriptional reporter gene assay as in section III.A; see Boss, V. et al. supra. […] Ki values were calculated from IC50 values.

For assay [2], the target named is T2, human V2 receptor (hV2R) (Homo sapiens, UniProt P30518).
T2 construct: expressed in transfected cells; host or cells: HEK-293
The experiment in a line: Antagonist transcriptional reporter gene assay, human V2 receptor. The settings on record: hV2, HEK-293 reporter gene, vs AVP; for Ki: Ki calculated from IC50, read-out: Geomean Ki. The procedure:
(§2) Agonist activity of compounds on the human V2 receptor (hV2R) and the rat V2 receptor (rV2R) was determined in a transcriptional reporter gene assay in which HEK-293 cells were transiently transfected with either the human or rat V2 receptor, and a reporter DNA containing cyclic-AMP responsive promoter elements regulating expression of firefly luciferase. See Castarion, M. J., Spevak, W., Biochem Biophys Res Commun.1994 Jan.
(§3) Antagonist activity of compounds on the human V2 receptor (hV2R) and the rat V2 receptor (rV2R) was determined in a transcriptional reporter gene assay as in section III.A; see Castañón, M. J. et al. supra. […] Ki values were calculated from IC50 values.

In assay [3] the target is T3, rat V2 receptor (rV2R) (Rattus norvegicus, UniProt Q00788).
T3 construct: expressed in transfected cells; host or cells: HEK-293
Description: Antagonist transcriptional reporter gene assay, rat V2 receptor. The settings on record: rV2, HEK-293 reporter gene, vs AVP; Ki calculated from IC50; read-out: Geomean Ki. The procedure:
as §2, §3

For assay [4], the target named is T4, rat V1a receptor (rV1aR) (Rattus norvegicus, UniProt P30560).
T4 construct: expressed in transfected cells; host or cells: HEK-293
Description: Antagonist transcriptional reporter gene assay, rat V1a receptor. Conditions: rV1a, HEK-293 reporter gene, vs AVP; for Ki: Ki calculated from IC50, read-out: Geomean Ki. The procedure: Agonist activity of compounds on the human V1a receptor (hV1aR) and the rat V1a receptor (rV 1 aR) was determined in a transcriptional reporter gene assay in which HEK-293 cells were transiently co-transfected with either the human or rat V1a receptor, and a reporter DNA containing intracellular calcium responsive promoter elements regulating expression of firefly luciferase. See Boss, V., Talpade, D. J., Murphy, T. J. J. Biol. Chem. 1996, May 3; 271(18), 10429-10432 for further guidance on this assay.
as §1

For assay [5], the target named is T4, rat V1a receptor (rV1aR). Description: Agonist transcriptional reporter gene assay, rat V1a receptor. Conditions: rV1a, HEK-293 reporter gene.
Assay [6] deals with T3, rat V2 receptor (rV2R). The experiment in a line: Agonist transcriptional reporter gene assay, rat V2 receptor. The settings on record: rV2, HEK-293 reporter gene, 5 hours.
In assay [7] the target is T2, human V2 receptor (hV2R). The experiment in a line: Agonist transcriptional reporter gene assay, human V2 receptor. The settings on record: hV2, HEK-293 reporter gene.
For assay [8], the target named is T1, human V1a receptor (hV1aR). Description: Agonist transcriptional reporter gene assay, human V1a receptor. The settings on record: hV1a, HEK-293 reporter gene.

For the substance “[Pmp1,D-Ile2,Ile4,Arg8]vasopressin [[Pmp1, D-Ile2, Ile4]AVP]”, the “Efficacy Antag” value in assay [1] is 120%; at human V2 receptor (hV2R) [2], 72%; at rat V1a receptor (rV1aR) [4] it was 26%. Moreover, the Ki in assay [1] was 163 nM; at human V2 receptor (hV2R) [2], 270 nM; on rat V2 receptor (rV2R) [3] it was 10 nM; at rat V1a receptor (rV1aR) [4] it was above 338 nM.
With “[Pmp1,D-Ile2,Ile4,Arg8]vasopressin-(1-8)-OH [[Pmp1, D-Ile2, Ile4]AVP-(1-8)-OH]”, the “Efficacy Antag” value in assay [1] came to 43%; on human V2 receptor (hV2R) [2] it was 25%; at rat V1a receptor (rV1aR) [4] it was 26%. The inhibition constant Ki in assay [1] is above 950 nM; on human V2 receptor (hV2R) [2], above 909 nM; at rat V2 receptor (rV2R) [3] it was 36 nM; on rat V1a receptor (rV1aR) [4] it was above 338 nM.
On to “ornithine vasopressin [[Orn8] Vasopressin, OVP]”, for which the Efficacy on rat V1a receptor (rV1aR) [5] turned out to be 101%; on human V2 receptor (hV2R) [7] it was 97%; in assay [8], 99%. For the same substance, the values for the EC50 on rat V2 receptor (rV2R) [6] and on human V2 receptor (hV2R) [7] (5 hours) were 0.37 nM and 0.45 nM, respectively.
